Test system: P. aeruginosa (PAO1) biofilm
Assay: Biofilm CFU on rings, antibiotic with or without iAMF, PAO1
Assay type: cell-based
Experimental: Biofilm preparation, treatment and quantification.
Doses were delivered at 0 and 12 hours and ring biofilm burden was quantified at various time points as above. For S. aureus experiments, biofilm of UAMS1 were prepared on stainless steel rings according to the culturing protocol and incubated with 2 μg/mL of ceftriaxone or 2 μg/mL of linezolid, in 10 mL TSB media. […] Doses were delivered at 0 and 12 hours and biofilm burden was quantified at 24 hours.

With O=C(O)c1cn(C2CC2)c2cc(N3CCNCC3)c(F)cc2c1=O [ciprofloxacin] as the compound, how does the “reduction in biofilm (CFU)” value (iAMF (Tmax 50, 65 or 80 °C, doses at 0 and 12 h) combined with 0.5 ug/ml ciprofloxacin, 24 h) read?
The value was “down to the limit of detection”.

And the “magnitude of biofilm reduction, 7-day versus 2-day biofilm” value (iAMF (Tmax=65 °C, 15 min per dose) and 0.5 μg mL-1 ciprofloxacin)?
Its value is “no significant difference”.

And the “biofilm CFU, iAMF and ciprofloxacin compared to ciprofloxacin alone” value (plastic rings, iAMF Tmax=65 °C)?
Its value is “no significant difference”.

— patent US20240157166A1, “ALTERNATING MAGNETIC FIELDS AND ANTIBIOTICS TO ERADICATE BIOFILM ON METAL IN A SYNERGISTIC FASHION” (priority 2021, published 2024)
